Assay results reported in patent US20080096951A1, “Carvedilol Monocitrate Monohydrate” (SB Pharmo Puerto Rico Inc., priority 2002, published 2008).

Test: Solubility in water (shaken vials, UV-Vis analysis of carvedilol concentration)
Settings: for pH of the filtered solution / Aqueous Solubility: water, 25° C.; for Aqueous Solubility: expressed as mg of carvedilol free base/mL of solution
Description: Glass vials containing water and excess amount of carvedilol salts were shaken by a mechanical shaker at ambient conditions. Aliquots were taken out at various time-point, filtered through 0.45 μm Acrodisc GHP filter. The pH of the filtered solutions was measured and suitable dilution was performed prior to UV-Vis analysis of carvedilol concentration.

## carvedilol monocitrate monohydrate [Carvedilol Mono-Citrate salt]
Dissolved in water
  pH value when dissolved in water: ~3
1 hr
  pH of the filtered solution: 3.5
  Aqueous Solubility: 1630 µg/mL
4 hr
  pH of the filtered solution: 3.4
  Aqueous Solubility: 1470 µg/mL
24 hr
  pH of the filtered solution: 3.0
  Aqueous Solubility: 1070 µg/mL
48 hr
  pH of the filtered solution: 3.0
